From ChEMBL document CHEMBL1127030, “3-Tetrahydrofuran and pyran urethanes as high-affinity P2-ligands for HIV-1 protease inhibitors” (J Med Chem, 1993)

Target: Human immunodeficiency virus type 1 protease (Human immunodeficiency virus 1, UniProt Q72874)
Assay: Inhibition of HIV-1 protease

SMILES | IC50
CC(C)(C)NC(=O)[C@@H]1C[C@@H]2CCCC[C@@H]2CN1C[C@@H](O)[C@H](Cc1ccccc1)NC(=O)O[C@H]1CCOC1 | 160 nM
CC(C)(C)NC(=O)[C@@H]1C[C@@H]2CCCC[C@@H]2CN1C[C@@H](O)[C@H](Cc1ccccc1)NC(=O)O[C@@H]1CCOC1 | 694 nM
